# pIC50: −log10 of the molar value.
# Amino acid sequences for entries named in this document (tags omitted).
# UniProt P10275, whole entry H875Y: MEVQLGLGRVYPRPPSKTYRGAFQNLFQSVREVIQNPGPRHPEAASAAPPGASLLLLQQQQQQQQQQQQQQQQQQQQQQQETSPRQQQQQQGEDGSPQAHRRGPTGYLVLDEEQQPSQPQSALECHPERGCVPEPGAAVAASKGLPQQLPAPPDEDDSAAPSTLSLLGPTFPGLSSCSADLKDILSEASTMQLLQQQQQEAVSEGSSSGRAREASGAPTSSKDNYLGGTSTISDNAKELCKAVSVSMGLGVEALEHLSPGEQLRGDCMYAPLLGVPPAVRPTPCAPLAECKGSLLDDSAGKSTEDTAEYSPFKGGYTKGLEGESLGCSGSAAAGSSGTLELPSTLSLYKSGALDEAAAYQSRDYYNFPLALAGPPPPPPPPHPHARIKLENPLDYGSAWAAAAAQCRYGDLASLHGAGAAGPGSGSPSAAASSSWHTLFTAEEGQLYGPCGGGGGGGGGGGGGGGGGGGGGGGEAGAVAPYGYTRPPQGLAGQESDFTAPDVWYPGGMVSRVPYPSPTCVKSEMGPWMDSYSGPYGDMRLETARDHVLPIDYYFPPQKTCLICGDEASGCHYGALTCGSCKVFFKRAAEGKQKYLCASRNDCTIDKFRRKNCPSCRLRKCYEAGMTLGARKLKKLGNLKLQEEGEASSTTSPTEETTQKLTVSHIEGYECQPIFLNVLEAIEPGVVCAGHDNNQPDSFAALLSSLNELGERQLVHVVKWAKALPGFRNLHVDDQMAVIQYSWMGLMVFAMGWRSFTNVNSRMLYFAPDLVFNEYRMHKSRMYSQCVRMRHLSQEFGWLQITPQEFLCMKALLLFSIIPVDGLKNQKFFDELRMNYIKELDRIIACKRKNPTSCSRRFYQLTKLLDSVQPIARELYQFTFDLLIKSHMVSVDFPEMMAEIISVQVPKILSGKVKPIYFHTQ
# Experiments:
# Androgen Receptor (AR) = Androgen Receptor (AR) (Homo sapiens, UniProt P10275, H875Y); assay: CETSA HT ITDRF at 46 °C, antagonist mode in the presence of 1 nM DHT, CWR22Pc-R1-AD1 cells; assay type: binding; conditions: for Conclusion: activity in CETSA HT: Supplementary Table S1, 2 h, 46 °C; for pIC50: read-out: AR target engagement (CETSA HT), 2 h, IC50, CWR22Pc-R1-AD1 cells, 1 nM DHT, 46 °C heat shock
# total cellular AR = assay: CETSA HT control without heat shock and without exogenous DHT (total AR); assay type: cell-based, human; conditions: 2 h compound incubation, no 46 °C heat shock
SMILES,Conclusion: activity in CETSA HT (Androgen Receptor (AR)),pIC50 (Androgen Receptor (AR)),effect on total AR (no heat shock) (total cellular AR)
COc1ccc(C=CC(=O)CC(=O)C=Cc2ccc(OC)c(OC)c2)cc1OC,Inactive,< 4.52,do not reduce total AR
O=C(O)c1ccc(CN2CCC(CN[C@@H]3C[C@H]3c3ccccc3)CC2)cc1 [GSK2879522],Inactive,< 4.52,
CC[C@H](C)n1cc(C)c2c(C(=O)NCc3c(C)cc(C)[nH]c3=O)cc(-c3ccc(N4CCNCC4)nc3)cc21 [GSK-126],Inactive,< 4.52,
Cc1sc2c(c1C)C(c1ccc(Cl)cc1)=N[C@@H](CC(=O)OC(C)(C)C)c1nnc(C)n1-2 [JQ1],Inactive,< 4.52,do not reduce total AR
N#Cc1cc2cc(CN3CCC(Nc4ncnc5sc(CC(F)(F)F)cc45)CC3)ccc2[nH]1 [MI-136],Inactive,< 4.52,
Cc1c(CN2CCC(Nc3ncnc4sc(CC(F)(F)F)cc34)CC2)ccc2c1cc(C#N)n2Cc1cn[nH]c1 [MI-503],Inactive,< 4.52,do not reduce total AR
